This is an account of results in US6475746B1, “Method of obtaining a composition comprising a 5-HT1D selective compound” (Synaptic Pharmaceutical Corporation, priority 1990, dated 2002).

Sequences of proteins named here, by UniProt entry; tags and fusion partners are left off.
UniProt P11614, whole entry: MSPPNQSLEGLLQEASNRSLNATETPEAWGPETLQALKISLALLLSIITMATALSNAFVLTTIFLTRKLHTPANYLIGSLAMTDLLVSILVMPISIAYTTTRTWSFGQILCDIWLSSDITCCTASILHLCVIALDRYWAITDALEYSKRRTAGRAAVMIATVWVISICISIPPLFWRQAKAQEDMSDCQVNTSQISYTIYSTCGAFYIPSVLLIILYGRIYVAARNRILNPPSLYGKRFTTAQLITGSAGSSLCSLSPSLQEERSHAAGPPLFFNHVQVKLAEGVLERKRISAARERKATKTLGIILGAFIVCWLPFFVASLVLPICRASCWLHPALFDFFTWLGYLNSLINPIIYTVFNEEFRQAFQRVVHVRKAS
UniProt P28222, whole entry: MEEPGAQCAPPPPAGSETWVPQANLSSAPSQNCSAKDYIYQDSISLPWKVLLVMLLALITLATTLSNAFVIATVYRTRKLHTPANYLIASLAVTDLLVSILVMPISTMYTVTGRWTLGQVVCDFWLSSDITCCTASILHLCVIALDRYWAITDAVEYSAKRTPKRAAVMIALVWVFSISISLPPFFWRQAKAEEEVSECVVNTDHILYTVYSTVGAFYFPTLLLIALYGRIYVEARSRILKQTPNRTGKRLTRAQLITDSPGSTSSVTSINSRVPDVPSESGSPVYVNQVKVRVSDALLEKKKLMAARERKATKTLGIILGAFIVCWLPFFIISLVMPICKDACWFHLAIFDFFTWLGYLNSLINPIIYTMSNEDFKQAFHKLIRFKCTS

Assay [1] deals with Cloned Canine 5-HT1D-1 (RDC4) (Canis lupus familiaris, UniProt P11614). The assay can be described thus: [3H]5-HT binding to cloned canine 5-HT1D-1 (RDC4) in transfected cell membranes.
Assay [2] concerns the target Cloned Human 5-HT1D-2 (Homo sapiens, UniProt P28222). The assay can be described thus: [3H]5-HT binding to cloned human 5-HT1D-2 (gene 11) in transfected cell membranes. The following applies: read-out: Estimated equilibrium dissociation constants (Ki values); [3H]5-HT displacement; membranes of LM (tk−) cells stably transfected; Cheng-Prusoff.

The term Ki denotes a measure of affinity in units of concentration, obtained from inhibition or displacement. In turn, `CNS(=O)(=O)Cc1ccc2[nH]cc(CCN(C)C)c2c1` [Sumatriptan] yielded a Ki in assay [1] of 0.0016 ± 0.0002 µM. For the compound `COC(=O)[C@@H]1[C@H]2C[C@H]3c4[nH]c5ccccc5c4CCN3C[C@@H]2CC[C@@H]1O` [Yohimbine], in assay [2], the Ki is 0.027 ± 0.003 µM.
